According to paper PMC10848371:

Assays:
[1] = protein stability, Fig. S3H-I (method not described in text); conditions: glycan lost; control: GFP-WT-gPD-1
[2] = sucrose gradient fractionation and immunoblot, Jurkat T cells; conditions: glycan lost; control: GFP-gPD-1 WT
[3] = confocal IF with organelle markers, COS-1/293T, 18 h; conditions: glycan lost; control: GFP-gPD-1 WT

B1: PD-1 (programmed cell death protein 1): 3NQ (protein)
parent chain: MQIPQAPWPVVWAVLQLGWRPGWFLDSPDRPWNPPTFSPALLVVTEGDNATFTCSFSNTSESFVLNWYRMSPSNQTDKLAAFPEDRSQPGQDCRFRVTQLPNGRDFHMSVVRARRNDSGTYLCGAISLAPKAQIKESLRAELRVTERRAEVPTAHPSPSPRPAGQFQTLVVGVVGGLLGSLVLLVWVLAVICSRAARGTIGARRTGQPLKEDPSAVPVFSVDYGELDFQWREKTPEPPVPCVPEQTEYATIVFPSGMGTSSPARRGSADGPRSAQPLRPEDGHCSWPL
decreases: degradation_or_half_life [1] | localisation_or_trafficking [2] | localisation_or_trafficking [3]
